According to ChEMBL document CHEMBL3822442, “Synthesis and Pharmacological Characterization of Novel Glucagon-like Peptide-2 (GLP-2) Analogues with Low Systemic Clearance” (J Med Chem, 2016):

Legend:
Format in all cases: cell-based
[1] = target: T1, Glucagon-like peptide 2 receptor (Homo sapiens, UniProt O95838); experiment: Agonist activity at human GLP2R expressed in HEK293 cells after 5 hrs by luciferase reporter gene assay
T1 sequence (O95838 whole entry): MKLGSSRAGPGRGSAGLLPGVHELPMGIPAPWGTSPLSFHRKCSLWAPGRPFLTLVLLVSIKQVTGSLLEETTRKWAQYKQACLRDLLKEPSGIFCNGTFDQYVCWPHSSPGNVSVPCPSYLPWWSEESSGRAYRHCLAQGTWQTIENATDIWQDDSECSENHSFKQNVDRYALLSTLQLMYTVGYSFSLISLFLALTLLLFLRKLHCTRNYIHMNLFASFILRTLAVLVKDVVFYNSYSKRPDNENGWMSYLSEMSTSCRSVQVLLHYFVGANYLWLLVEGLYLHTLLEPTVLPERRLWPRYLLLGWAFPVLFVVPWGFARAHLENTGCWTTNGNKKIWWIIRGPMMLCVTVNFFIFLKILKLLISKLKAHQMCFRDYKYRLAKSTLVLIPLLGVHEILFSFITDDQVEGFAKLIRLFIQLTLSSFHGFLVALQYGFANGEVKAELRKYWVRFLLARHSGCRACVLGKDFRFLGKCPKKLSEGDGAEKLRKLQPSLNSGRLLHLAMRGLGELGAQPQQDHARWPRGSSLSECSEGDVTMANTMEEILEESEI

[2] = target: T2, Glucagon-like peptide 2 receptor (Homo sapiens) (UniProt O95838); experiment: Potency index, ratio of compound EC50 to compound 2 EC50 for human GLP2R expressed in HEK293 cells
T2 sequence (whole entry): T1 sequence (O95838 whole entry)

[3] = tested on: HEK293; experiment: Selectivity ratio of EC50 for human GLP1R expressed in HEK293 cells to EC50 for human GLP2R expressed in HEK293

- EC50 [1]: 90 pM
- Ratio EC50 [2]: 1
SMILES: CC[C@H](C)[C@H](NC(=O)[C@H](Cc1ccccc1)NC(=O)[C@H](CC(=O)O)NC(=O)[C@H](CCCNC(=N)N)NC(=O)[C@H](C)NC(=O)[C@H](C)NC(=O)[C@H](CC(C)C)NC(=O)[C@H](CC(N)=O)NC(=O)[C@H](CC(=O)O)NC(=O)[C@H](CC(C)C)NC(=O)[C@@H](NC(=O)[C@@H](NC(=O)[C@H](CC(N)=O)NC(=O)[C@H](CCSC)NC(=O)[C@H](CCC(=O)O)NC(=O)[C@H](CC(=O)O)NC(=O)[C@H](CO)NC(=O)[C@H](Cc1ccccc1)NC(=O)[C@H](CO)NC(=O)CNC(=O)[C@H](CC(=O)O)NC(=O)CNC(=O)[C@@H](N)Cc1c[nH]cn1)[C@@H](C)O)[C@@H](C)CC)C(=O)N[C@@H](CC(N)=O)C(=O)N[C@@H](Cc1c[nH]c2ccccc12)C(=O)N[C@@H](CC(C)C)C(=O)N[C@H](C(=O)N[C@@H](CCC(N)=O)C(=O)N[C@H](C(=O)N[C@@H](CCCCN)C(=O)N[C@H](C(=O)N[C@H](C(=O)N[C@@H](CC(=O)O)C(=O)O)[C@@H](C)O)[C@@H](C)CC)[C@@H](C)O)[C@@H](C)CC [TEDUGLUTIDE]
- Ratio EC50 [3]: > 11000
